Values quoted from earlier work in US20240066037A1 (priority 2020, published 2024).

Chains of the proteins cited; added tags and fusions are not shown. Residues count along the entry.
UniProt P43235, 115-329: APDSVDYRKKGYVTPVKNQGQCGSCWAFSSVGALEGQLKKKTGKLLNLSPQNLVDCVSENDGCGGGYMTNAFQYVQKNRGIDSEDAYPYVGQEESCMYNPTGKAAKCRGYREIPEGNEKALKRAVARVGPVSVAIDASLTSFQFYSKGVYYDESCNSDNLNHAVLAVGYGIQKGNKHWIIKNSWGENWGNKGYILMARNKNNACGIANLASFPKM

Target: Cat K (Homo sapiens, UniProt P43235)
Settings: cited from earlier work

Structure (SMILES): CC(C)C[C@H](NC(=O)c1cc2ccccc2o1)C(=O)N[C@H]1CC[C@@H](C)N(S(=O)(=O)c2ccccn2)CC1=O [relacatib, N-((2S)-4-methyl-1-(((4S,7R)-7-methyl-3-oxo-1-(pyridin-2-ylsulfonyl)azepan-4-yl)amino)-1-oxopentan-2-yl)benzofuran-2-carboxamide]
- Ki: 0.04 nM
